How the values were obtained:
hKOP receptor = hKOP receptor (Homo sapiens, UniProt P41145); assay: Agonistic function cAMP assay, HEK293-hKOPr cells; conditions: for EC50: read-out: hKOP receptor EC50
[1] = biological target: hNOP receptor (ORL-1 receptor) (Homo sapiens, UniProt P41146); assay: Agonistic function cAMP assay, CHO-hNOPr cells; conditions: for EC50: read-out: hNOP receptor (ORL-1 receptor) EC50
hDOP receptor = hDOP receptor (Homo sapiens, UniProt P41143); assay: Agonistic function cAMP assay, HEK293-hDOPr cells; conditions: for EC50: read-out: hDOP receptor EC50
hMOP receptor = hMOP receptor (Homo sapiens, UniProt P35372); assay: Agonistic function cAMP assay, CHO-hMOPr cells; conditions: for EC50: read-out: hMOP receptor EC50
SNI neuropathic pain [2] = assay: Spared nerve injury (SNI) model, foot weight bearing difference; type: in vivo, rats; conditions: high dose 10 mg/kg s.c.
SNI neuropathic pain [3] = assay: Spared nerve injury (SNI) model, mechanical pain threshold (Von Frey Hairs); type: in vivo, rats
hKOPr = hKOPr (Homo sapiens, UniProt P41145); assay: Opioid receptor affinity, radioligand binding ([3H]-U69593), CHO-K1 KOP receptor cell membrane; conditions: read-out: Opioid receptor affinity Ki hKOPr; [3H]-U69593 1.5 nM
hNOPr = hNOPr (Homo sapiens, UniProt P41146); assay: Opioid receptor affinity, radioligand binding ([3H]-Nociceptin), HEK293-NOP receptor cell membrane; conditions: read-out: Opioid receptor affinity Ki hNOPr; [3H]-Nociceptin 0.5 nM

Protein sequences, listed by entry. Tags and fused reporters are not part of them. Lines headed by an entry give the natural chain unless they say otherwise; changes in a name come on top.
UniProt P41145: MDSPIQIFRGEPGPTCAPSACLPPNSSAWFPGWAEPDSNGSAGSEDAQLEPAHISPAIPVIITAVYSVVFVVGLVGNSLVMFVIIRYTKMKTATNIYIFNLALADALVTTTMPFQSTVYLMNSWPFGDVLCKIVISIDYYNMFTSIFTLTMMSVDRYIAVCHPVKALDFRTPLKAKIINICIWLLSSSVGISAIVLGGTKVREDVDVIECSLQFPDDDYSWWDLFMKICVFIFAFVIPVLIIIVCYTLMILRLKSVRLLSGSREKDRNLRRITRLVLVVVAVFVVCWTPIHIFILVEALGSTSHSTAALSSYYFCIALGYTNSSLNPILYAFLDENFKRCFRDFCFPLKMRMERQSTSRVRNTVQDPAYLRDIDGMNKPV
UniProt P41146: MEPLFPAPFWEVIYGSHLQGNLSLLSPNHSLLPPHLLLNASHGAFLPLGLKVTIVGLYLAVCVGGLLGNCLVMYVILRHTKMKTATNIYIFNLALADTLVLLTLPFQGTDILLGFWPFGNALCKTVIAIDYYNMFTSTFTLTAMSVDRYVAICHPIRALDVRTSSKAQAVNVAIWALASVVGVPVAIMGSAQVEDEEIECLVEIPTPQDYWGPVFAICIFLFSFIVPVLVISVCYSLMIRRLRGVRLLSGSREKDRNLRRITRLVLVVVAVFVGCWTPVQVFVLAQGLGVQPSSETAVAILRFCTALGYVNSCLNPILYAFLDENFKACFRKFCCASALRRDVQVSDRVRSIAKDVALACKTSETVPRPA
UniProt P41143, whole entry, looked up: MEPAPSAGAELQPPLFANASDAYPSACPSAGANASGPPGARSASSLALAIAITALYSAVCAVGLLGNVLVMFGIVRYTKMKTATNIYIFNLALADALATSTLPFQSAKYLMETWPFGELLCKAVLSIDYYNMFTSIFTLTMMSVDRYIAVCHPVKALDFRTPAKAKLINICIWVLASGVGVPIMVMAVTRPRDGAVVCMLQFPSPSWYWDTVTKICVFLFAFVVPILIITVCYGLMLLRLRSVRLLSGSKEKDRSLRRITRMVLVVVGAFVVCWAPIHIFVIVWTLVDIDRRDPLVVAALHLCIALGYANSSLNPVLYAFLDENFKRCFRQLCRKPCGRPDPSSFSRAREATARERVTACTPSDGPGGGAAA
UniProt P35372, whole entry, looked up: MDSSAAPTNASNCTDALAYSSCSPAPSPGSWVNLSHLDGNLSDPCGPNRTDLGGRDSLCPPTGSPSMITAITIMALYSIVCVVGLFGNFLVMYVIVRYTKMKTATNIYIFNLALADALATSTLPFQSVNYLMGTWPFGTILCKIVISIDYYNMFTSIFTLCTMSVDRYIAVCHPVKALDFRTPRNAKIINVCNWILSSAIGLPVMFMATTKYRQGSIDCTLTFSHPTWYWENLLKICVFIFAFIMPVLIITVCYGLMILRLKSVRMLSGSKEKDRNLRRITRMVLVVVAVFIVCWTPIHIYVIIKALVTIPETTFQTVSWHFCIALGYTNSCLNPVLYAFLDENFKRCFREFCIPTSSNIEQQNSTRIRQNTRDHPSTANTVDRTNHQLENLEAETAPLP

| Structure (SMILES) | hKOP receptor Emax(%) (hKOP receptor) | EC50 (hKOP receptor) | hNOP receptor (ORL-1 receptor) Emax(%) [1] | EC50 [1] | hDOP receptor Emax(%) (hDOP receptor) | EC50 (hDOP receptor) | hMOP receptor Emax(%) (hMOP receptor) | EC50 (hMOP receptor) | balance value of weight bearing difference between the hind feet (SNI neuropathic pain [2]; first hour) | balance value of weight bearing difference between the hind feet (SNI neuropathic pain [2]; second hour) | inhibition of neuropathic pain (in words) (SNI neuropathic pain [3]; SNI rats, 1, 3, 10 mg/kg s.c.) | mechanical pain threshold (Von Frey Hairs) (SNI neuropathic pain [3]; high dose 10 mg/kg s.c., 1 h after administration) | mechanical pain threshold (Von Frey Hairs) (SNI neuropathic pain [3]; high dose 10 mg/kg s.c., second hour) | mechanical pain threshold (Von Frey Hairs) (SNI neuropathic pain [3]; medium dose 3 mg/kg s.c., 1 h after administration) | Ki (hKOPr) | Ki (hNOPr) |
| --- | --- | --- | --- | --- | --- | --- | --- | --- | --- | --- | --- | --- | --- | --- | --- | --- |
| O=c1n(CCN2CCOCC2)c2cc(Cl)c(Cl)cc2n1C1CCN(Cc2ccc(F)cc2F)CC1 | 108.1% | 190 nM | 71.9% | 1090 nM | 125.2% | 2240 nM | 114.7% | 94.2 nM | – | – | – | – | – | – | – | – |
| O=c1n(CCN2CCOCC2)c2cc(Cl)c(Cl)cc2n1C1CCN(Cc2ccccc2Cl)CC1 | 121.20% | 28.9 nM | 65.25% | 613 nM | – | – | 101.60% | 47.2 nM | – | – | – | – | – | – | – | – |
| Cc1ccccc1CN1CCC(n2c(=O)n(CCN3CCOCC3)c3cc(Cl)c(Cl)cc32)CC1 | 100.40% | 11.8 nM | 67.22% | 376 nM | – | – | 101.70% | 20.2 nM | – | – | – | – | – | – | – | – |
| O=c1n(CCN2CCOCC2)c2cc(Cl)c(Cl)cc2n1C1CCN(Cc2ccccc2F)CC1 | 102.20% | 1.04 nM | 74.28% | 421 nM | – | – | 101.50% | 60.6 nM | – | – | – | – | – | – | – | – |
| CC(C)C1CCC(N2CCC(n3c(=O)n(CCN4CCOCC4)c4cc(Cl)c(Cl)cc43)CC2)CC1 (stereo not shown) | 108.4% | 3480 nM | 33.6% | 436 nM | 71.8% | 3980 nM | 80.7% | 326 nM | – | – | – | – | – | – | – | – |
| O=c1n(CCN2CCOCC2)c2cc(Cl)c(Cl)cc2n1C1CCN(Cc2ccc(F)cc2Cl)CC1 | 92.1% | 37 nM | 76.7% | 359 nM | 117.0% | 567 nM | 94.5% | 8.8 nM | 46.82 ± 1.68 g | 46.54 ± 0.80 g | effectively inhibit neuropathic pain in rats | 9.5 ± 0.2 g | 8.3 ± 0.1 g | 7.0 ± 0.1 g | – | – |
| CC(C)[C@H]1CC[C@@H](N2CCC(n3c(=O)n(CCN4CCOCC4)c4cc(F)c(F)cc43)CC2)CC1 | – | – | 79.98% | 283 nM | – | – | 76.14% | 530 nM | – | – | – | – | – | – | – | – |
| O=C1N(CCN2CCOCC2)c2cc(Cl)c(Cl)cc2CN1C1CCN(Cc2ccc(F)cc2Cl)CC1 | – | – | – | – | – | – | – | – | – | – | – | – | – | – | 27.1 nM | 2190 nM |
| CC(C)[C@H]1CC[C@@H](N2CCC(n3c(=O)n(CCN4CCOCC4)c4cc(F)c(Cl)cc43)CC2)CC1 | – | – | 82.83% | 617 nM | – | – | 62.12% | 1020 nM | – | – | – | – | – | – | – | – |
| O=c1n(CCN2CCCCC2)c2cc(Cl)c(Cl)cc2n1C1CCN(Cc2ccc(F)cc2Cl)CC1 | 94.00% | 353 nM | 81.78% | 999 nM | – | – | 97.06% | 86.2 nM | – | – | – | – | – | – | – | – |
| CC(C)C1CCC(N2CCC(N3Cc4cc(Cl)c(Cl)cc4N(CCN4CCOCC4)C3=O)CC2)CC1 (stereo not shown) | – | – | – | – | – | – | – | – | – | – | – | – | – | – | – | 581 nM |
| CC(C)[C@H]1CC[C@@H](N2CCC(n3c(=O)n(CCN4CCOCC4)c4cc(Cl)c(Cl)cc43)CC2)CC1 | 80.58% | 633 nM | 52.88% | 400 nM | 115.1% | 16000 nM | 66.77% | 560 nM | – | – | – | – | – | – | – | – |
| O=c1n(CCN2CCS(=O)(=O)CC2)c2cc(Cl)c(Cl)cc2n1C1CCN(Cc2ccc(F)cc2Cl)CC1 | 74.93% | 79.1 nM | 73.26% | 279 nM | – | – | 104.00% | 3.8 nM | – | – | – | – | – | – | – | – |
| CN1CCN(CCn2c(=O)n(C3CCN(Cc4ccc(F)cc4Cl)CC3)c3cc(Cl)c(Cl)cc32)CC1 | 95.8% | 21.4 nM | 73.2% | 451 nM | 114.6% | 2740 nM | 89.1% | 73.2 nM | – | – | – | – | – | – | – | – |
| O=c1n(CCN2CCOCC2)c2cc(Cl)c(Cl)cc2n1C1CCN(Cc2ccc(Cl)cc2Cl)CC1 | 97.2% | 157 nM | 91.0% | 684 nM | 124.1% | 1570 nM | 85.4% | 22.4 nM | – | – | – | – | – | – | – | – |
| Cc1ccc(CN2CCC(n3c(=O)n(CCN4CCOCC4)c4cc(Cl)c(Cl)cc43)CC2)c(Cl)c1 | 110.8% | 67.1 nM | 86.4% | 615 nM | 118.8% | 1380 nM | 91.7% | 24.6 nM | – | – | – | – | – | – | – | – |
| CC(C)[C@H]1CC[C@@H](N2CCC(n3c(=O)n(CCN(C)C)c4cc(Cl)c(Cl)cc43)CC2)CC1 | – | – | 89.29% | 213 nM | – | – | 84.75% | 530 nM | – | – | – | – | – | – | – | – |
| CN(C)CCn1c(=O)n(C2CCN(Cc3ccc(F)cc3Cl)CC2)c2cc(Cl)c(Cl)cc21 | 100.20% | 268 nM | 86.99% | 494 nM | – | – | 103.10% | 35.5 nM | – | – | – | – | – | – | – | – |
| CC(C)[C@H]1CC[C@@H](N2CCC(n3c(=O)n(CCN4CCOCC4)c4cc(Cl)c(F)cc43)CC2)CC1 | – | – | 54.76% | 688 nM | – | – | 55.85% | 1160 nM | – | – | – | – | – | – | – | – |
| Cc1cc(F)ccc1CN1CCC(n2c(=O)n(CCN3CCOCC3)c3cc(Cl)c(Cl)cc32)CC1 | 110.5% | 244 nM | 80.2% | 593 nM | 119.4% | 2080 nM | 91.6% | 59 nM | – | – | – | – | – | – | – | – |
| O=c1n(CCN2CCOCC2)c2cc(Cl)c(Cl)cc2n1C1CCN(Cc2ccc(Cl)cc2F)CC1 | 91.0% | 823 nM | 92.75% | 4030 nM | 138.6% | 2620 nM | 105.2% | 51.4 nM | – | – | – | – | – | – | – | – |
| O=C1NCc2cc(Cl)c(Cl)cc2N1C1CCN(Cc2ccccc2Cl)CC1 | 91.40% | 85.5 nM | 77.59% | 262 nM | – | – | 98.87% | 43.7 nM | – | – | – | – | – | – | – | – |
| O=C1N(CCN2CCOCC2)Cc2cc(Cl)c(Cl)cc2N1C1CCN(Cc2ccc(F)cc2Cl)CC1 | – | 269 nM | – | 207 nM | – | – | – | 51.5 nM | – | – | – | – | – | – | – | – |

Source: patent US20240327383A1 (priority 2021, published 2024)
